This data set deals with MCF-7 cells. Kind of data set: MTT cytotoxicity / synergy assay, 72 h, MCF-7. It is filed as cell-based, human. The procedure: Stock solutions of the tested compounds were first prepared in DMSO at 200-fold the intended final concentration. […] The cells were treated for 72 h under the same conditions.
Following treatment, 25 μL of MTT solution was added to each well, and the plates were incubated for 2 h at 37 °C. […] IC₅₀ values, indicating the concentration required to reduce cell viability by 50% compared to untreated controls (set as 100% viability), were calculated using GraphPad Prism 9 software (GraphPad Software, San Diego, CA, USA). All data from this preliminary cytotoxic assay were analyzed by ANOVA followed by Tukey’s post hoc test for multiple comparisons, with significance set at p < 0.05. A similar statistical approach was used for the rest of the experimental work presented in this study.

Consider `CCC1=C(C)CN(C(=O)NCCc2ccc(S(=O)(=O)NC(=O)N[C@H]3CC[C@H](C)CC3)cc2)C1=O` [GLIM, Glimepiride], for which the “average combination index (CI¯)” value (Chou–Talalay, mean over the dose combinations of Figure 4b) is 0.11. In addition, the “improvement (increase) in cytotoxicity relative to DOXO alone” value (¼ IC50 DOXO (0.12 µM) and ¼ IC50 GLIM (45.1 µM)) is reported as 4.4 fold.

(Values after PMC11855866, “Combining Sulfonylureas with Anticancer Drugs: Evidence of Synergistic Efficacy with Doxorubicin In Vitro and In Vivo” (International Journal of Molecular Sciences, 2025).)
